# Ab-14 light chain CDR variants: yeast mating affinities

Source: Li et al. 2023 (doi:10.1038/s41467-023-39022-2), MIT Lincoln Laboratory and A-Alpha Bio; data file from the FLAb repository.

Target: peptide PDVDLGDISGINAS, taken from heptad repeat 2 (HR2) of SARS-CoV-2 spike.

Parent: Ab-14, a human scFv built as VH, a (GGGGS)3 linker, VL. Only the CDRs of the light chain vary.
VH: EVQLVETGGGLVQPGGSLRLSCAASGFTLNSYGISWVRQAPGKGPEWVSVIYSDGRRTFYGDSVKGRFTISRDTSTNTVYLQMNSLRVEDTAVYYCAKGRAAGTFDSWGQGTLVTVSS
VL: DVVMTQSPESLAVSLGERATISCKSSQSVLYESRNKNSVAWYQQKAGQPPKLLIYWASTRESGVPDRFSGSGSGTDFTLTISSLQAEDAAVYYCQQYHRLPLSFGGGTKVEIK

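The parent was found by panning a naive human phage display library on the peptide. Designed CDR sequences, proposed from the first random library and measured here. Group labels follow the data file (Ctrl: baseline library sampled from a position-specific scoring matrix, with some repeated check sequences; En: ensemble of fine-tuned language models; GP: Gaussian process model; HC: hill climbing; Gen: genetic algorithm; Gibbs: Gibbs sampling; a sequence that several methods proposed may carry one label only). AlphaSeq pools MATa yeast showing the antibodies with MATalpha yeast showing the peptide. Pairs that bind mate more often; barcode pairs of the diploids are counted by sequencing. Each replicate has its own calibration line, from reference interactions of the BCL2 family. Each pool was mated in six replicate cultures.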

Variants are written as CDR1, CDR2 and CDR3 of the light chain (limits as in the source). Parent: KSSQSVLYESRNKNSVA, WASTRES, QQYHRLPLS.
Values are log10 of the apparent Kd in nM; lower means stronger binding.
Replicates are averaged; those with no signal do not enter the mean.
An entry "n.d." has no value in the source: the pair was not observed among the diploids in that replicate. This suggests poor binding but is not conclusive.
Empty control strains, which show no peptide, gave a signal in 4% of pairings with all light chain designs; the median was 2.64 and 95% of these signals were weaker than 1.59. No background was subtracted. For each scFv, signals with the empty controls are counted beside the result, with their mean in brackets.

replicates, log10 nM	log10 Kd (nM), mean	empty controls	CDR-L1	CDR-L2	CDR-L3	group
0.65 1.45 0.92 1.17 0.88 1.20	1.04	0/18	HMSMITLMGSRNRNSVA	QMTTREN	QQYDRLPLA	En_Gen
0.46 0.38 0.56 0.58 0.46 0.78	0.54	2/18 (2.63)	NLNTYYYGGFLNTDNIA	HGNMVEA	QQYDRLPLS	En_Gibbs
-0.05 -0.05 -0.29 -0.37 -0.04 0.02	-0.13	1/18 (2.63)	KLSQSFLYESRQKNSVA	NASTRES	QQYHRLPLS	GP_Gen
0.41 0.32 0.25 0.52 0.55 0.41	0.41	0/18	KWDQSVDGESRNKNSVA	QASQREW	QQYHRLPLS	GP_Gibbs
0.77 0.65 0.69 0.43 0.17 0.51	0.54	1/18 (2.99)	KIGQMVTGETRNKNSIA	QMTTREG	QQYHRLPLS	En_HC
0.95 1.18 1.05 1.56 1.23 1.01	1.16	2/18 (2.66)	KFDLLMTTEYNNNKNVA	EGVHHLA	QQYERLPLQ	En_Gibbs
0.03 -0.13 -0.18 -0.20 -0.27 -0.14	-0.15	1/18 (2.21)	KLSQSVLYESRNKNSVA	EASTREA	QQYHRLPLS	GP_Gen
0.63 0.61 0.37 0.31 0.44 0.58	0.49	0/18	KLPNSTLYESRQKNSVA	WASTRES	QQYHRLPLS	GP_HC
0.82 0.83 1.04 0.92 1.37 1.01	1.00	0/18	KLYDMAALTMNNIRNVA	DNSTREE	QQYHRLPLS	En_Gen
n.d. 2.07 2.17 n.d. n.d. 2.99	2.41	1/18 (2.12)	KASQSVLYESRNKNSVA	WASTRES	QQYHRLPLS	Ctrl
n.d. 4.07 1.97 0.71 2.91 1.69	2.27	3/18 (2.71)	KLLQVTETMSLNRNSVA	HMSTRED	QQYNRLPLS	En_HC
0.51 1.75 1.34 1.27 1.13 0.97	1.16	0/18	KLSNSELYQSRNKNSVA	NASTRYS	QQYHRLPLS	GP_Gibbs
-0.68 -0.90 -0.71 -0.77 -0.81 -0.72	-0.77	0/18	KVSQSVLYESRNKNAVA	DASTRES	QQYHRLPLS	GP_Gen
n.d. 2.06 1.38 1.28 1.44 1.32	1.50	1/18 (2.32)	RLSEISHFESKKKNSVA	ENSTREE	QQYDHLPLS	En_HC
0.81 0.49 1.04 1.21 0.90 0.60	0.84	0/18	KLSQSQNYLSRVMNSVA	DNSTRES	QQYFRLPLS	En_HC
1.03 0.95 0.55 1.10 0.93 1.35	0.98	0/18	KITATMRFEQKASNNIA	EVSMRTK	QQYVRLPLA	En_Gen
0.76 0.35 0.42 0.15 0.12 0.16	0.33	3/18 (2.46)	MISQLYNMGQFAINSVA	QASTRNE	QQYERLPLM	En_Gen
n.d. 2.33 3.07 1.90 2.43 2.84	2.51	3/18 (2.39)	MIYGAQRELGLKANSIA	DNVTRYN	QQYERLPLS	En_Gen
0.29 0.09 0.23 0.28 0.29 0.30	0.25	0/18	KIGQTLNQLSHQKNNVA	DLVMREK	QQYHRLPLS	En_Gen
0.15 0.03 -0.07 -0.12 0.07 0.01	0.01	3/18 (3.71)	RSSQSSLYESRNKNSVA	AASTREE	QQYRRLPLS	Ctrl
n.d. n.d. n.d. n.d. n.d. n.d.	n.d.	0/18	HMSVLTLQGMRHRNSVA	QMTTREN	QQYDHLPLS	En_Gen
n.d. n.d. n.d. n.d. n.d. n.d.	n.d.	0/18	MLSMMEQHMGDRMHNVA	ETNVAKM	QDYFRLPLM	En_Gibbs
0.04 0.24 0.14 -0.19 -0.09 0.34	0.08	1/18 (2.66)	KQDQSDGGEQRNKNSVA	EASTRCE	QQYHRLPLS	GP_Gibbs
n.d. n.d. 2.92 n.d. n.d. 2.15	2.54	0/18	KLPMATMQESVSKNNVA	ELSTRGS	QQYHRLPLS	En_HC
0.95 0.39 0.33 0.61 0.45 0.81	0.59	0/18	KLSMLTEMEHKNRNSVA	ELVTRMA	QQYNRLPLS	En_Gen
0.19 -0.06 -0.18 -0.35 -0.22 -0.11	-0.12	1/18 (2.33)	KMSQSILYESRNKNSVA	EASTRES	QQYHRLPLS	Ctrl
1.13 1.43 1.50 1.42 1.24 1.32	1.34	2/18 (2.51)	KISQMIRVGSTHSNSIA	EEVTRAK	QQYHRLPLA	En_Gen
2.18 2.32 2.14 2.33 2.10 2.80	2.31	0/18	KSSQSVLYESWNKNSVA	EASTRES	QQYHRLPLS	Ctrl
-0.31 -0.25 -0.02 -0.22 0.06 -0.25	-0.16	0/18	SISGFMKSSLAHHNSVA	DMTNRED	QQYDRLPLS	En_Gen
1.44 1.11 1.02 1.44 1.02 1.36	1.23	1/18 (2.16)	KVDMGELPNGFNRSSVA	QAEVRAP	QQYWQLPLE	En_Gibbs
n.d. n.d. n.d. n.d. n.d. n.d.	n.d.	0/18	KLQMITGTEKVRGNNVA	EMETREN	QQYNRLPLS	En_Gen
1.39 1.83 2.26 1.74 1.80 1.70	1.79	1/18 (2.30)	KVSQSQLYESRNKNSVA	NASKRES	QQYHRLPLS	GP_Gen
-0.10 0.15 0.23 -0.24 -0.08 0.13	0.01	0/18	KLSQEVLYESRNKNSVA	RASTRES	QQYHRLPLS	Ctrl
2.50 n.d. 0.87 1.43 1.96 1.56	1.67	0/18	KVQQSELGLSRNKWSVA	EASTRED	QQYHRLPLS	GP_Gibbs
1.69 1.47 0.89 0.87 1.10 1.22	1.21	0/18	KVDISPHVQGMHKSGVA	EHDMRVS	QQYDRLPLA	En_Gibbs
1.31 1.24 1.39 1.10 1.03 1.42	1.25	0/18	RIFYNEEQDLRHKSSIA	NGSARVF	QQYYMLPLS	En_Gibbs
0.81 0.53 0.53 0.30 0.54 0.56	0.54	0/18	KSGQSVLYESNNKNSVA	SASTRFS	QQYHRLPLS	Ctrl
n.d. n.d. 1.44 n.d. n.d. n.d.	1.44	1/18 (2.01)	HITMGMYVHGRHHSSIA	QAETRAK	QQYDRLPLI	En_Gen
1.06 0.83 0.73 0.81 0.92 1.10	0.91	1/18 (2.31)	KLYQSMGYLSRNKSSIA	DMSRREN	QQYHRLPLS	En_HC
0.71 0.66 0.64 0.53 0.51 0.78	0.64	3/18 (2.67)	KVVKAKSEGDRHAANVA	NANKATD	QQYYRLPLA	En_Gibbs
-0.03 0.09 -0.12 -0.04 0.07 0.20	0.03	0/18	KLQQSNLYESRNKNSVA	NASTRLS	QQYHRLPLS	GP_Gen
n.d. n.d. n.d. n.d. n.d. n.d.	n.d.	0/18	KSSWSVLYESRNKNSVA	WASTRES	QQYHRLPLN	Ctrl
2.84 1.19 0.97 1.48 2.65 1.30	1.74	0/18	HFAQTRQEDIQNKNSVA	EGSVVIS	QQYSKLPLS	En_Gibbs
0.56 0.47 0.39 0.33 0.34 0.48	0.43	0/18	KLSYSDGGLQRNKNSVA	EASTREM	QQYHRLPLS	GP_Gibbs
0.24 -0.02 0.26 -0.20 0.04 0.28	0.10	3/18 (4.05)	KESQSWIYESRNKNSVA	NASTRES	QQYHRLPLS	GP_HC

Extract of 6 entries:

CDR-L1,CDR-L2,CDR-L3,group,"replicates, log10 nM","log10 Kd (nM), mean",empty controls
RSSQSSLYESRNKNSVA,AASTREE,QQYRRLPLS,Ctrl,0.15 0.03 -0.07 -0.12 0.07 0.01,0.01,3/18 (3.71)
KLQMITGTEKVRGNNVA,EMETREN,QQYNRLPLS,En_Gen,n.d. n.d. n.d. n.d. n.d. n.d.,n.d.,0/18
KIGQMVTGETRNKNSIA,QMTTREG,QQYHRLPLS,En_HC,0.77 0.65 0.69 0.43 0.17 0.51,0.54,1/18 (2.99)
KSGQSVLYESNNKNSVA,SASTRFS,QQYHRLPLS,Ctrl,0.81 0.53 0.53 0.30 0.54 0.56,0.54,0/18
KVVKAKSEGDRHAANVA,NANKATD,QQYYRLPLA,En_Gibbs,0.71 0.66 0.64 0.53 0.51 0.78,0.64,3/18 (2.67)
KASQSVLYESRNKNSVA,WASTRES,QQYHRLPLS,Ctrl,n.d. 2.07 2.17 n.d. n.d. 2.99,2.41,1/18 (2.12)

Of ten entries with the parent sequence, four were seen in most replicates (averages 0.34 to 2.37), three in one and three in none, so single entries are noisy.
Values of this round are not directly comparable with the first-round values of the same sequences.
The authors averaged sequences with at least three values out of six and counted those with two or fewer as poor binders.